Laboratory results reported in PMC6391970, “Design, Synthesis and Characterization of Covalent KDM5 Inhibitors” (Angewandte Chemie (International Ed. in English), 2018).
Where two headings read alike, the source gives them in different places.

Protein sequences, listed by entry. Tags and fused reporters are not part of them. Chains listed by the source or under a name are the forms on record and can include a tag or linker. Residues count along the entry.
UniProt Q9UGL1, 26-101 limits assumed: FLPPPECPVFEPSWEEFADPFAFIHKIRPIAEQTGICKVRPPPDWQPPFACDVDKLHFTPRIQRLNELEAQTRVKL
UniProt Q9UGL1, 374-770 limits assumed: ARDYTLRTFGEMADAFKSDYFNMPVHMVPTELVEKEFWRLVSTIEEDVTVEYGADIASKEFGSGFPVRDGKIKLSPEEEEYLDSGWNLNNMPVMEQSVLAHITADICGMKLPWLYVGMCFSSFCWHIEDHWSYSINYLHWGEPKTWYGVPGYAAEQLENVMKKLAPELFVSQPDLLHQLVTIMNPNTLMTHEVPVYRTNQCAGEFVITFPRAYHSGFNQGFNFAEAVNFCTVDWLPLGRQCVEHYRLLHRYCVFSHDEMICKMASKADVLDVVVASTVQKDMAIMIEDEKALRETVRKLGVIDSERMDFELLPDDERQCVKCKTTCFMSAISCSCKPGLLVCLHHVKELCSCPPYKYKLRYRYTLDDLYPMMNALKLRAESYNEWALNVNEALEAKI
UniProt Q9UGL1, 26-770 with tags or gaps A373G/DEL102-140/DEL143-371/Q372G limits assumed: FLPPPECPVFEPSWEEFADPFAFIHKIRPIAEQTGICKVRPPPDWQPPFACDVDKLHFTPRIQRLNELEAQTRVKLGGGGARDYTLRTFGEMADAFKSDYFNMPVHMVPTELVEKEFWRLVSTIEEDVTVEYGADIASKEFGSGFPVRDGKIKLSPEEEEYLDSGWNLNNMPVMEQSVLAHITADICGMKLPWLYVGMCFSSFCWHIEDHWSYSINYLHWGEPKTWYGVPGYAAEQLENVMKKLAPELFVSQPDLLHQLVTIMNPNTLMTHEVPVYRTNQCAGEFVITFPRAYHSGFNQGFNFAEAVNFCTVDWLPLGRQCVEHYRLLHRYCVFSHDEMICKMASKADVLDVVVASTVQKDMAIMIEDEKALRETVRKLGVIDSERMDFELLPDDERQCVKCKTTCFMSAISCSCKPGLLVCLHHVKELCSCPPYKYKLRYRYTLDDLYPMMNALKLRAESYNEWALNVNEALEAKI
UniProt O75164, whole entry: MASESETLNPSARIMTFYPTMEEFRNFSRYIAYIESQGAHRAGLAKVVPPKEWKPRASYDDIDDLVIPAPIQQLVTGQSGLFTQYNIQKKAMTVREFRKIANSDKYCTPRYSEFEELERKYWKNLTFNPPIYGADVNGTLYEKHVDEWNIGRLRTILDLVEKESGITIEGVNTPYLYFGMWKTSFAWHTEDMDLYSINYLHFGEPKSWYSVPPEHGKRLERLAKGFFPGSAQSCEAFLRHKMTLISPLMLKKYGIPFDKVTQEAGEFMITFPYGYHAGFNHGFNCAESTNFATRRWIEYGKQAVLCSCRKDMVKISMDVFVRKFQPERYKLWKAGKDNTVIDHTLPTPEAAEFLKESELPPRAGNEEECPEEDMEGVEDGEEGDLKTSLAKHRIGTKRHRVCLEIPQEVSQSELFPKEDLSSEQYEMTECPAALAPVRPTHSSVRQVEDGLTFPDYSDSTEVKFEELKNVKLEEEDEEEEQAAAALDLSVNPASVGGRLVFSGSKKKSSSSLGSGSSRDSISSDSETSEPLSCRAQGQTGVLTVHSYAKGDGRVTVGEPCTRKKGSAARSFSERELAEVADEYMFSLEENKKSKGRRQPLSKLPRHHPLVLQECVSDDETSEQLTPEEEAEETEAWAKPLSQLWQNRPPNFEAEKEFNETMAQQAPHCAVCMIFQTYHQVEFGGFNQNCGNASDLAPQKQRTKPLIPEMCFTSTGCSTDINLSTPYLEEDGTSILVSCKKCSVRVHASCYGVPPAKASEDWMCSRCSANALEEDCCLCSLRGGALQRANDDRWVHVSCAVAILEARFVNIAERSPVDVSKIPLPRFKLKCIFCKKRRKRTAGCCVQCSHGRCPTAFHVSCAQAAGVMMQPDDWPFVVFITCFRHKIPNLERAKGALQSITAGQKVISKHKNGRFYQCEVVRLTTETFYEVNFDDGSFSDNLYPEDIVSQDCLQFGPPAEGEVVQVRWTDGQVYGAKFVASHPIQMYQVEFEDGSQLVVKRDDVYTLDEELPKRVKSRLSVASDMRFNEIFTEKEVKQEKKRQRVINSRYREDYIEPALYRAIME
UniProt O94953, whole entry: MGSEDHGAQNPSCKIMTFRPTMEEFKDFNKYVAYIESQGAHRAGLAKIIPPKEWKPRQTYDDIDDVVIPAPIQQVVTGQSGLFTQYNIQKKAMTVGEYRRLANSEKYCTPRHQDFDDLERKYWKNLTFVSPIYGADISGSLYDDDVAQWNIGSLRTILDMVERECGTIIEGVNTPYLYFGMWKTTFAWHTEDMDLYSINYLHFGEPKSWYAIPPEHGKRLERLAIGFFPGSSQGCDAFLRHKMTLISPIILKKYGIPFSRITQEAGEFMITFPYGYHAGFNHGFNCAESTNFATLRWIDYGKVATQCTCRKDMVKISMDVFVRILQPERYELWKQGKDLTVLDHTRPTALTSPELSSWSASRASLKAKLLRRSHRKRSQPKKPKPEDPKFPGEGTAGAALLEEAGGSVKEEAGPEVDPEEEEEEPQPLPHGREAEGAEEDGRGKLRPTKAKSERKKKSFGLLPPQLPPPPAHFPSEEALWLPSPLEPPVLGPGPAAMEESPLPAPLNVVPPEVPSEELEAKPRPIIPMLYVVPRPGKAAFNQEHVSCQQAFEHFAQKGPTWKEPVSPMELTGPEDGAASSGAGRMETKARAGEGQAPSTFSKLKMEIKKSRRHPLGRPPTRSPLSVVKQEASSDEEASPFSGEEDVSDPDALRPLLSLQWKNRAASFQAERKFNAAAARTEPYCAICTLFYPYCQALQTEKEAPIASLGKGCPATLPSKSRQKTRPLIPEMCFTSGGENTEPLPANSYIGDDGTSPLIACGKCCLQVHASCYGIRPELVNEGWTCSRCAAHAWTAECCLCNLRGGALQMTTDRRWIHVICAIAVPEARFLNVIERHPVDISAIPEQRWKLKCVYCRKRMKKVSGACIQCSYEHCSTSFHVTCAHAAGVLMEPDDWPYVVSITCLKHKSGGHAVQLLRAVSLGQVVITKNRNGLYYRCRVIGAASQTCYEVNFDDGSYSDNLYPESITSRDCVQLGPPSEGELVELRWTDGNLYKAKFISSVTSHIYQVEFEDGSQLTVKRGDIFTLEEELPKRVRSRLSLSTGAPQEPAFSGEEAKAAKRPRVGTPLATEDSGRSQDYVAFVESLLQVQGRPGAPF
UniProt P29375, whole entry: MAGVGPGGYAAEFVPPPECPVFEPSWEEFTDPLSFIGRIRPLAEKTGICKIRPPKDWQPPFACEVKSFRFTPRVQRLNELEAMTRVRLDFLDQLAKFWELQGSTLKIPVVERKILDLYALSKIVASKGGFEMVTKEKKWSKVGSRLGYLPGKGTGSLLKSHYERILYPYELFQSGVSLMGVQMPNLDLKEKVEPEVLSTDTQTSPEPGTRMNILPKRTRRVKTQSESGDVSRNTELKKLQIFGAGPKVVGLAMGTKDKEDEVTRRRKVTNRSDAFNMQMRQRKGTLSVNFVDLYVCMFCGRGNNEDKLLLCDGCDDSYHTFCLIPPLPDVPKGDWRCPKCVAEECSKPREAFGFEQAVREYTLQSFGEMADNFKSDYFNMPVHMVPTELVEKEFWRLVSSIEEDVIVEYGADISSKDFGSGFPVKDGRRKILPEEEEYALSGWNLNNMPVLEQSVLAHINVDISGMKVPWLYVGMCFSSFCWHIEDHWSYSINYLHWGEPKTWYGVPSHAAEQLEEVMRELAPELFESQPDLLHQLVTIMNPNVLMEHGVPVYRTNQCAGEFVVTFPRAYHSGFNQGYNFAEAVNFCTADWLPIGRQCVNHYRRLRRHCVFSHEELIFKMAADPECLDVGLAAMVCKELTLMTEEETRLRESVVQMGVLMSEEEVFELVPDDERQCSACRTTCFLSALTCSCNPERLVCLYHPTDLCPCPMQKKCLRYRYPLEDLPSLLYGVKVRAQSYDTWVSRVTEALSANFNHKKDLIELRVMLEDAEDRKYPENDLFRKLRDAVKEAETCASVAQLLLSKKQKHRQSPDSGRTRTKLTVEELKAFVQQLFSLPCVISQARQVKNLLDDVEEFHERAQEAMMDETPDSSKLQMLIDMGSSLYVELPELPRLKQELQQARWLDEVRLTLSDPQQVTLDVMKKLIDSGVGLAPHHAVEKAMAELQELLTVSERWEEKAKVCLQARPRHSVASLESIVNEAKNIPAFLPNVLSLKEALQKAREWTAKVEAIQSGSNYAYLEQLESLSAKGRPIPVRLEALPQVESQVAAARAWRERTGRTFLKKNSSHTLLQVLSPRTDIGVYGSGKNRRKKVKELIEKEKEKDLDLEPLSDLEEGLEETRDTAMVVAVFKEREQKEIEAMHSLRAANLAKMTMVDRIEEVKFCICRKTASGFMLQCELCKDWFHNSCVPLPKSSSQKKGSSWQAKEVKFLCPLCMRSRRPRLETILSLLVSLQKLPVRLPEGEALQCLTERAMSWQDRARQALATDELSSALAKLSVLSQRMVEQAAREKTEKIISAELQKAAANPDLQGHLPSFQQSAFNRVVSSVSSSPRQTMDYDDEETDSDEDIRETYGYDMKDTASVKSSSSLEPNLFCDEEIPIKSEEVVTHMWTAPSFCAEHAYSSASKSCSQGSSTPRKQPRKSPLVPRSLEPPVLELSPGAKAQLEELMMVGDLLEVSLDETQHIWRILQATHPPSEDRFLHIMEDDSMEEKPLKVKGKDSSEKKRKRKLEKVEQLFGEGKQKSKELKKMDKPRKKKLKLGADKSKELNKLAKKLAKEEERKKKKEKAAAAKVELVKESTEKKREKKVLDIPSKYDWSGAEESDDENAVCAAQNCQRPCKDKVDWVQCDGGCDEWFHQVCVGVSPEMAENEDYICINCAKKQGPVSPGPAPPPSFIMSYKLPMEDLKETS
UniProt O15054, whole entry: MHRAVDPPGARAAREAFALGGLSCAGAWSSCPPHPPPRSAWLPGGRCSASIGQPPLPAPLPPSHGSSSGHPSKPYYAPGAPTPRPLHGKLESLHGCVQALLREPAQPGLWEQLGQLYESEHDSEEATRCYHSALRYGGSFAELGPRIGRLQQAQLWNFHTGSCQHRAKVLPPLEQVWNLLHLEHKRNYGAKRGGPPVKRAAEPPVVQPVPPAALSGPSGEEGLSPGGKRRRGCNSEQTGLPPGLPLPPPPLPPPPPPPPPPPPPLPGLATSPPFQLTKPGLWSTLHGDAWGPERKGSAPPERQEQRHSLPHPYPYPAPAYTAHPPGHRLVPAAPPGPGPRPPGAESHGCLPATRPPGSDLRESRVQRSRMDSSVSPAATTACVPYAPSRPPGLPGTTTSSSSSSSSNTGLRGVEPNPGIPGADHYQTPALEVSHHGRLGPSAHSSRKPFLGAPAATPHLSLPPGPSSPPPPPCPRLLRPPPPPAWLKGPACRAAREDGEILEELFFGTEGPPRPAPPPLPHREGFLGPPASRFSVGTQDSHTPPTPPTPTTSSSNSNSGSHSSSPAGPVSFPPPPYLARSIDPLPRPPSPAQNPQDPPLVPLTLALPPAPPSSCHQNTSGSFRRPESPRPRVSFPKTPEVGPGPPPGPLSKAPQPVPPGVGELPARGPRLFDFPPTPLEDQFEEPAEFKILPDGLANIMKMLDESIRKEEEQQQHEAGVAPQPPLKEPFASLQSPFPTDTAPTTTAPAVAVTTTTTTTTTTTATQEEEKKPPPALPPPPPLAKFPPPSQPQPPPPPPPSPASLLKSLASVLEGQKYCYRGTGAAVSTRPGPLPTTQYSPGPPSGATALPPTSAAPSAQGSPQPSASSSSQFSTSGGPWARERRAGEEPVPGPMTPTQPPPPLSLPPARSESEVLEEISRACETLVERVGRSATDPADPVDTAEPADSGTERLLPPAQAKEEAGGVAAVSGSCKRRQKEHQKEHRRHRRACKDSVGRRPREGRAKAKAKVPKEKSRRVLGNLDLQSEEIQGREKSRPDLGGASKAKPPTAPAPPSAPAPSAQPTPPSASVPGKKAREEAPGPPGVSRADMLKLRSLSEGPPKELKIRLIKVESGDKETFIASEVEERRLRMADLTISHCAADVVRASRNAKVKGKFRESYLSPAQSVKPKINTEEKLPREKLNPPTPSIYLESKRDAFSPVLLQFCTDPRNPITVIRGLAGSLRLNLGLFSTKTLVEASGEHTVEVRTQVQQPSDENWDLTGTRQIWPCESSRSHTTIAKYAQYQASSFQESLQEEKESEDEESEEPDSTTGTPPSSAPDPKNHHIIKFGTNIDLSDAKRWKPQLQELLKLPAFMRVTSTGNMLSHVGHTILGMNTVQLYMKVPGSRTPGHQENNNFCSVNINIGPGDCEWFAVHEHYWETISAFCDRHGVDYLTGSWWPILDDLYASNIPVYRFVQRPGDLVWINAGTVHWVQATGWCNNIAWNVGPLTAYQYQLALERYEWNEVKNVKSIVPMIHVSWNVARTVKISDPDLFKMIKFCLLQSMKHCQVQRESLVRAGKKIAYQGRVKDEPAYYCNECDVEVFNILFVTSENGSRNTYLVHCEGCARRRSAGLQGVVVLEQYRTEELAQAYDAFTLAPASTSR

Assays:
KDM5B [1] = target: KDM5B (Homo sapiens, UniProt Q9UGL1); experiment: Timecourse KDM5B AlphaScreen inhibition and kinact/Ki calculation; type: biochemical
KDM5B [2] = target: KDM5B (Homo sapiens, UniProt Q9UGL1, A373G/DEL102-140/DEL143-371/Q372G); experiment: KDM5B 2-OG competition assay (AlphaScreen); type: biochemical; settings: AlphaScreen in vitro activity in KDM5B
KDM2A = KDM2A (Homo sapiens, UniProt Q9Y2K7); experiment: KDM AlphaScreen selectivity panel, KDM2A; type: biochemical
KDM3A = KDM3A (Homo sapiens, UniProt Q9Y4C1); experiment: KDM AlphaScreen selectivity panel, KDM3A; type: biochemical; settings: KDM3A IC50/KDM5B IC50
KDM4A = KDM4A (Homo sapiens, UniProt O75164); experiment: KDM AlphaScreen selectivity panel, KDM4A; type: biochemical; settings: KDM4A IC50/KDM5B IC50
KDM4B = KDM4B (Homo sapiens, UniProt O94953); experiment: KDM AlphaScreen selectivity panel, KDM4B; type: biochemical; settings: KDM4B IC50/KDM5B IC50
KDM4C = KDM4C (Homo sapiens, UniProt Q9H3R0); experiment: KDM AlphaScreen selectivity panel, KDM4C; type: biochemical; settings: KDM4C IC50/KDM5B IC50
KDM5A = KDM5A (Homo sapiens, UniProt P29375); experiment: KDM AlphaScreen selectivity panel, KDM5A; type: biochemical; settings: KDM5A IC50/KDM5B IC50
KDM5C = KDM5C (Homo sapiens, UniProt P41229); experiment: KDM AlphaScreen selectivity panel, KDM5C; type: biochemical; settings: KDM5C IC50/KDM5B IC50
KDM5D = KDM5D (Homo sapiens, UniProt Q9BY66); experiment: KDM AlphaScreen selectivity panel, KDM5D; type: biochemical; settings: KDM5D IC50/KDM5B IC50
KDM6B = KDM6B (Homo sapiens, UniProt O15054); experiment: KDM AlphaScreen selectivity panel, KDM6B; type: biochemical
Caco‐2 cells = experiment: Caco-2 permeability; type: in vitro ADME; settings: A to B
[3] = from time-dependent IC50 values, pre-incubation 0 to 120 min

## CC(C)c1c(-c2ccc(OCCNC(=O)CCl)cc2)[nH]c2c(C#N)cnn2c1=O
KDM5B [1]
  kinact/Ki: 6900 M⁻¹ s⁻¹
KDM5B [1]; Table S1
  kinact/Ki: 6.9 ± 0.11 10^3/sM
KDM5B [1]; [3]
  Ki: 691 nM
  kinact: 48 ± 1.7 10^-4/s
KDM5B [2]; read-out: IC50 (2‐OG 1 μM), 2-OG 1 μM
  IC50: 49 nM
KDM5B [2]; read-out: IC50 (2‐OG 1 mM), 2-OG 1 mM
  IC50: 41 nM
KDM2A; KDM2A IC50/KDM5B IC50
  SI over KDM5B, 2A: > 677
KDM2A; read-out: KDM IC50 2A, AlphaScreen after 120 min pre-incubation
  IC50: > 33000 nM
KDM3A
  SI over KDM5B, 3A: 95
KDM4A
  SI over KDM5B, 4A: 97
KDM4B
  SI over KDM5B, 4B: 195
KDM4C
  SI over KDM5B, 4C: 29
KDM5A
  SI over KDM5B, 5A: 1
KDM5C
  SI over KDM5B, 5C: 40
KDM5D
  SI over KDM5B, 5D: 4
KDM6B; KDM6B IC50/KDM5B IC50
  SI over KDM5B, 6B: 196
KDM6B; read-out: KDM IC50 6B, AlphaScreen after 120 min pre-incubation
  IC50: 9600 nM
Caco‐2 cells
  P app: <0.76 10^−6 cm s^−1
